Assay outcomes deposited in PubChem by Broad Institute.
UUG fidelity: alters start codon recognition fidelity in yeast; AID 602363; activity score, % at 18.7 µM; 350,000 tested, 0.13% active; S. cerevisiae UUG-firefly luciferase reporter, luminescence/redox ratio;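 active means replicate mean at a twofold rise or more, about +100% in these data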;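 further: firefly luciferase made from a UUG start codon reports start codon fidelity; reporter light over untreated wells divided by growth signal over untreated wells; some hits fall short of that in this replicate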
CAL PDZ FP-1: CAL PDZ peptide-binding inhibitors, primary screen, biochemical, fluorescence polarization, Cer-tagged CAL PDZ, HTS. purified CAL PDZ, TMR-peptide fluorescence polarization, 1 h. AID 504414, 2011. 0.02% of 330,000 active. Golgi-associated PDZ and coiled-coil motif-containing protein (Homo sapiens), Q9HD26. inhibition, % at 20 µM;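 active = highest replicate inhibition of at least 40%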;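 also: plate controls were DMSO neutral control wells for no effect and unlabeled competitor peptide control wells for full effect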
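Material: tagged CAL PDZ domain; buffer or medium: 25 mM sodium phosphate pH 7.4, 150 mM NaCl, TCEP, IgG, Thesit; compound dosing: single point, 20 µM; schedule: 1 h incubation at room temperature before polarization reading; measured by: FP readout, S and P plane fluorescence; read-out basis: percent inhibition from loss of millipolarization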
ARNT-TACC3 inh: disruptors of ARNT/TACC3 protein interaction, primary screen, biochemical, AlphaScreen, single concentration; Transforming acidic coiled-coil-containing protein 3 (Homo sapiens), Q9Y6A5; AID 623870, 2012; inhibition, % at 9.99 µM; 0.66% of 390,000 active; AlphaScreen His-ARNT PAS-B/GST-TACC3 binding, luminescence; TACC3 fragment carries E629A point mutation;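 active = mean inhibition of replicates at least 50% and at least half of replicates each reaching 50%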;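 also: 0% = complete ARNT plus TACC3 wells and 100% = ARNT alone without TACC3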
CAL PDZ FP-2: untagged CAL PDZ binding inhibitors, primary screen, biochemical, fluorescence polarization, HTS. purified CAL PDZ, TMR-peptide fluorescence polarization, 1 h. inhibition, % at 24.9 µM. AID 602252, 2012. Golgi-associated PDZ and coiled-coil motif-containing protein (Homo sapiens), Q9HD26. 0.92% of 300,000 active;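 active = mean inhibition of at least 30% with at least half of replicates also reaching 30%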;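 also: 0% = DMSO neutral control and 100% = excess unlabeled competitor peptide PRC23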
Vif inh: HIV Vif self-association inhibitors, primary screen, imaging, HEK293T, single point | HEK293T cells, Vif self-association by quenched fluorescence, 24 h | inhibition, % at 7.49 µM | 0.35% of 340,000 active | AID 602346, 2012; in the data active = inhibition above about 50%, passing the limit was not always enough
PglD inh: C. jejuni PglD acetyltransferase inhibitors, primary screen, biochemical, DTNB colorimetric, single point. 0.098% of 360,000 active. UDP-N-acetylbacillosamine N-acetyltransferase PglD (Campylobacter jejuni). purified PglD enzyme, DTNB colorimetric CoA detection. inhibition, % at 12.5 µM; in the data active = inhibition above about 16%, passing the limit was not always enough
Numbers without * were called inactive; . = not tested or not shown; ! = a repeat was not active. Shown are actives, neighbours in structure and some others; about 1.6% of the full set was active somewhere.

Preview, 3 compounds:
Key to letters: A = UUG fidelity; B = CAL PDZ FP-1; C = ARNT-TACC3 inh; D = CAL PDZ FP-2; E = Vif inh; F = PglD inh
1: O=C(C[n+]1cc(Br)cc2ccccc21)c1ccccc1
  A = -15.7	B = 0.2	C = -0.5	D = -2.6	E = 54.8*	F = -1.2

2: COc1ccc(C(=O)C[n+]2cc(Br)cc3ccccc32)cc1[N+](=O)[O-]
  A = -4.1	B = -0.6	C = -8.3	D = -1.5	E = -3.5	F = 0.2

3: Cn1ncc(=S)[nH]c1=S
  A = -14.6	B = 0.1	C = -2.8	D = 84.6*	E = 0.0	F = 1.4

The whole of this part, repeating the preview:
Key to letters: A = UUG fidelity; B = CAL PDZ FP-1; C = ARNT-TACC3 inh; D = CAL PDZ FP-2; E = Vif inh; F = PglD inh
1: O=C(C[n+]1cc(Br)cc2ccccc21)c1ccccc1
  A = -15.7	B = 0.2	C = -0.5	D = -2.6	E = 54.8*	F = -1.2

2: COc1ccc(C(=O)C[n+]2cc(Br)cc3ccccc32)cc1[N+](=O)[O-]
  A = -4.1	B = -0.6	C = -8.3	D = -1.5	E = -3.5	F = 0.2

3: Cn1ncc(=S)[nH]c1=S
  A = -14.6	B = 0.1	C = -2.8	D = 84.6*	E = 0.0	F = 1.4

4: Cn1ncc2c(=O)[nH]c(N)nc21
  A = .	B = -0.9	C = -11.0	D = -0.5	E = 0.5	F = .

5: CN1CCN(C(=O)[C@H]2[C@H](CO)[C@H]3Cn4c(ccc(-c5cncnc5)c4=O)[C@H]3N2CC2CCCC2)CC1
  A = -8.9	B = .	C = -7.9	D = .	E = .	F = -1.6

6: CC(=O)N(C)C[C@@H]1Oc2ncc(C#CCc3ccccc3)cc2C(=O)N([C@@H](C)CO)C[C@@H]1C
  A = 17.4	B = .	C = 8.1	D = .	E = .	F = 4.0

7: O=C(NCC(=O)N1CCN(S(=O)(=O)c2cccs2)CC1)c1ccc(Cl)cc1
  A = 9.4	B = -0.6	C = 2.6	D = 3.6	E = 57.8*	F = 1.9

8: COc1cc(C(=O)N2CCN(S(=O)(=O)c3cccs3)CC2)cc(OC)c1C
  A = .	B = -0.7	C = -2.1	D = 57.8*	E = 10.3	F = .

9: Cc1ccc(C(=O)NCC(=O)N2CCN(S(=O)(=O)c3cccs3)CC2)s1
  A = 2.2	B = -0.4	C = -0.5	D = -4.2	E = 1.2	F = 4.0

10: O=C(c1cccs1)N1CCN(S(=O)(=O)c2cccs2)CC1
  A = .	B = -1.6	C = -2.1	D = 6.3	E = 0.1	F = .

11: CC(C)NC(=O)N(C)C[C@@H]1Oc2c(NS(=O)(=O)c3ccccc3)cccc2C(=O)N([C@H](C)CO)C[C@H]1C
  A = -2.9	B = .	C = -11.6	D = .	E = .	F = 1.2

12: C[C@@H]1CN([C@H](C)CO)C(=O)c2cc(N(C)C)ccc2O[C@H]1CN(C)C(=O)Nc1ccc2c(c1)OCO2
  A = 3.8	B = .	C = 0.9	D = .	E = .	F = 0.9

13: C[C@H](NC(=O)C[C@H]1C[C@@H]2c3cc(NC(=O)c4cccnc4)ccc3O[C@@H]2[C@@H](CO)O1)c1ccccc1
  A = .	B = .	C = -0.6	D = .	E = .	F = 3.0

14: CCCC(=O)Nc1cc(C(F)(F)F)ccc1N1CCOCC1
  A = 0.5	B = 0.5	C = -2.6	D = 34.8*	E = -5.2	F = -1.8

15: COc1cc(C2c3cc4c(cc3C3OC(=O)C2C3CO)OCO4)cc(OC)c1OC (stereo not drawn)
  A = -8.0	B = .	C = .	D = .	E = .	F = 3.9

16: CCN(CC)C1Oc2cc3c(cc2C(c2cc(OC)c(OC)c(OC)c2)C1C)OCO3 (stereo not drawn)
  A = .	B = -0.4	C = -5.2	D = -1.1	E = 55.0*	F = .

17: c1cc2c(cc1Cn1cnnn1)OCO2
  A = 0.8	B = -1.6	C = -3.5	D = 62.4*	E = 5.7	F = 6.8

18: Cc1ccccc1-c1ccc2c(c1)O[C@@H](CN(C)C(=O)C1CC1)[C@@H](C)CN([C@H](C)CO)S2(=O)=O
  A = -7.3	B = .	C = -4.5	D = .	E = .	F = 3.9

19: Nc1cc(=O)[nH]c(=O)n1CCCc1ccccc1
  A = -15.6	B = -1.0	C = -9.3	D = 38.9*	E = -3.0	F = -6.3

20: COCC(=O)N1C[C@@H]2[C@H](c3ccccc31)[C@@H](CO)N2C(=O)C1CCCCC1
  A = -9.5	B = .	C = -3.4	D = .	E = .	F = 0.9

21: Cc1cccc(Nc2nc(N)nc(N)c2N=O)c1
  A = -8.7	B = 19.1	C = 10.5	D = 71.0*	E = 27.8	F = -6.3

22: Cc1cccc(Nc2nc(N)nc(CCl)n2)c1
  A = -10.7	B = -0.7	C = 10.6	D = .	E = 141.9*	F = 0.6

23: COc1cccc(Nc2nc(N)nc(CCl)n2)c1
  A = -30.2	B = 0.7	C = 2.7	D = -2.5	E = 1.5	F = -3.1

24: O=C(C[C@@H]1C[C@H]2c3cc(NC(=O)NC4CCCC4)ccc3O[C@H]2[C@H](CO)O1)NCCc1ccccc1
  A = 10.8	B = .	C = -12.9	D = .	E = .	F = -3.9

25: Cc1ccc(-n2ncc(Cl)c2C(=O)NC2CC2)cc1
  A = .	B = -0.8	C = 2.1	D = 58.7*	E = -7.8	F = .

26: CNC(=O)c1c(Cl)cnn1-c1ccc(C)cc1
  A = .	B = -0.9	C = 2.0	D = -3.4	E = -0.7	F = .

27: O=C(O)c1c(-c2ccc(Cl)cc2)cn2ccccc12
  A = .	B = -1.8	C = 5.0	D = 99.9*	E = -2.7	F = .

28: O=S(=O)(/N=C(/c1ccccc1)N1CCOCC1)c1ccc(Br)cc1
  A = 4.8	B = -1.8	C = -3.3	D = 37.0*	E = 1.8	F = -1.9

29: O=C(O)c1ccccc1-c1ccc(/C=c2\sc3nc4cc(Br)cnc4n3c2=O)o1
  A = 73.0	B = -0.6	C = 50.4*	D = 0.6	E = .	F = -1.7

30: Cc1cc2nc3s/c(=C/c4ccc(-c5ccccc5C(=O)O)o4)c(=O)n3c2cc1C
  A = 39.7	B = -2.9	C = -1.1	D = -0.5	E = 9.6	F = 4.7

31: NCCCC[C@H](N[C@@H](CCc1ccccc1)C(=O)O)C(=O)N1CCC[C@H]1C(=O)O
  A = -21.3	B = -0.1	C = 0.0	D = -2.0	E = 78.6*!	F = -2.4

32: CC(C)CC#Cc1cnc2c(c1)C(=O)N([C@@H](C)CO)C[C@H](C)[C@@H](CN(C)Cc1cncnc1)O2
  A = -1.5	B = .	C = -5.5	D = .	E = .	F = 2.1

33: CN1C(=O)c2ccccc2C(C(=O)O)C1c1cn(C)c2ccccc12 (stereo not drawn)
  A = -31.5	B = .	C = -4.7	D = 41.5*	E = 10.7	F = -1.2

34: COc1ccc(-c2csc(-c3cccnc3)n2)cc1C
  A = -20.6	B = -0.7	C = -1.0	D = .	E = 114.8*	F = 1.6

35: CC(=O)C1=NOC(CNC(=O)c2c(-c3ccccc3Cl)noc2C)C1 (stereo not drawn)
  A = -10.0	B = -0.5	C = -4.1	D = 44.8*	E = 0.9	F = 1.3

36: CCOC(=O)C1=NOC(CNC(=O)c2c(-c3ccccc3Cl)noc2C)C1 (stereo not drawn)
  A = .	B = 0.1	C = .	D = -6.6	E = .	F = .

37: Cc1onc(-c2ccccc2Cl)c1C(=O)N1CCCC1
  A = -1.4	B = -5.2	C = -5.3	D = -5.1	E = 1.0	F = 4.2

38: Cc1onc(-c2ccccc2Cl)c1C(=O)N1CCN(C)CC1
  A = -7.2	B = -1.8	C = -8.3	D = -3.1	E = 50.7*	F = -0.1

39: C[C@@H]1CN([C@@H](C)CO)C(=O)c2cccc(NC(=O)c3ccc(-c4nccs4)cc3)c2O[C@H]1CN(C)Cc1ccc2c(c1)OCO2
  A = -15.4	B = .	C = 3.3	D = .	E = .	F = 6.0

40: O=C(c1ccc(OC2CCN(C/C=C/c3ccccc3)CC2)cc1)N1CCCCC1
  A = -6.7	B = 13.5	C = 3.9	D = 36.7*	E = -1.7	F = 3.4

41: O=C(c1ccc(OC2CCN(C/C=C/c3ccccc3)CC2)cc1)N1CCCC1
  A = -6.0	B = -2.0	C = 8.8	D = -5.9	E = .	F = -1.7

42: O=C(C[C@@H]1CC[C@@H]2[C@H](COC[C@H](O)CN2C(=O)Nc2ccc(C(F)(F)F)cc2)O1)NCCc1ccncc1
  A = 11.7	B = .	C = -22.6	D = .	E = .	F = 13.7

43: COc1cccc2c1C(=O)c1c(O)c3c(c(O)c1C2=O)C[C@@](O)(C(=O)CO)C[C@@H]3OC1CC(N)C(O)C(C)O1 (stereo partly drawn)
  A = .	B = 12.3	C = 6.5	D = 5.5	E = -6.4	F = .

44: CC(=O)[C@@]1(O)Cc2c(O)c3c(c(O)c2[C@H](O[C@H]2C[C@H](N)[C@H](O)[C@H](C)O2)C1)C(=O)c1ccccc1C3=O
  A = -16.4	B = .	C = .	D = .	E = 66.5*	F = 0.4

45: CC(=O)Nc1ccc(S(=O)(=O)N2c3ccccc3C(C)=CC2(C)C)cc1
  A = .	B = -2.0	C = -3.2	D = -1.8	E = 80.8*	F = .
